Sequences of proteins named here, by UniProt entry; tags and fusion partners are left off. Residues count along the entry.
UniProt P47871, 26-477: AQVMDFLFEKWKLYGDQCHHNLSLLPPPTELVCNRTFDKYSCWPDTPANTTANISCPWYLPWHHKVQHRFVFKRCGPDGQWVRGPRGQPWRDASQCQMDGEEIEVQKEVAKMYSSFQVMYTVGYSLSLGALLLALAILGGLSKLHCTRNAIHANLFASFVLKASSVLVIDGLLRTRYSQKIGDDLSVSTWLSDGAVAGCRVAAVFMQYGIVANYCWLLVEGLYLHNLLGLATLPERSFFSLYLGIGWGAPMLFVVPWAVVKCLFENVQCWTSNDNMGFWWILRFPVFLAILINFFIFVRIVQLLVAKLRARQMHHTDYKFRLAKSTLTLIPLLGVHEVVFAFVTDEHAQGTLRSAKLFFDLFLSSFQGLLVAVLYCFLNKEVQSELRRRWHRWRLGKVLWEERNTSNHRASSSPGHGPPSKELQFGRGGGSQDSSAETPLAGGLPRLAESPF
UniProt P43220, 24-463: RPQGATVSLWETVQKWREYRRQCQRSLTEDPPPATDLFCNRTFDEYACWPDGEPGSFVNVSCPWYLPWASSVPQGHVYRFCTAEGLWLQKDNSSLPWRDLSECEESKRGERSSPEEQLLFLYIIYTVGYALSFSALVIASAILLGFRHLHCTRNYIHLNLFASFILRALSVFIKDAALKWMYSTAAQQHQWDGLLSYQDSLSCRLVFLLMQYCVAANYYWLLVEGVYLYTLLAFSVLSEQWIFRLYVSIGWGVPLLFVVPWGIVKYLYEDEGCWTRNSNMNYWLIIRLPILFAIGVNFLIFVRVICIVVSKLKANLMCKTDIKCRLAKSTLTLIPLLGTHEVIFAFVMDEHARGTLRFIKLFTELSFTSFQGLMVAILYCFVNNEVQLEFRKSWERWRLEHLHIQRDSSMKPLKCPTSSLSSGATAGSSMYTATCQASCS

In patent US20250129135A1, “Multi-Agonist and Use Thereof” (priority 2021, published 2025):

Tests used:
Human GCG R = biological target: T1, Human GCG R (Homo sapiens, UniProt P47871); test: cAMP (HTRF) activity in HEK-293 cells stably overexpressing human GCG receptor; format: cell-based; conditions: EC50 of human GCG / EC50 of compound
T1 construct: expressed in transfected cells; host or cells: HEK-293
In short: (§1)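 Cells resuspended in HBSS are incubated with compound for 60 min at room temperature, then with HTRF cAMP detection reagent for a further 60 min. Concentration-response fits give agonist EC50 values in nM.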

3T3-L1 adipocytes = system: 3T3-L1 adipocytes
In short: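 Mouse 3T3-L1 preadipocytes were differentiated with IBMX, dexamethasone and insulin for 5 days, then insulin plus 10 uM rosiglitazone for 3 days, then 10% FBS medium for 2–3 days. Mature adipocytes received 10-point, 3-fold compound dilutions for 60 min at room temperature. cAMP was read by kit detection reagent after a further 60 min, with concentration-effect curves fitted.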

[1] = system: human primary liver cells; format: cell-based
In short: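 Human primary hepatocytes, thawed at 37° C and resuspended in HBSS, exposed to compound for 60 min at room temperature. Detection reagent then added for 60 min before cAMP readout.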

C57 BL/6J DIO mice = test: In vivo pharmacodynamics in high-fat diet induced obesity (DIO) mice; set-up: species or system mouse; conditions: Mean±SEM; for Weight change: Table 6-2; for LDL-C / TC (total cholesterol) / TG (plasma triglycerides): Table 7-2
Excerpt: High-fat diet induced obesity (DIO) mice have characteristics such as obesity, elevated blood sugar, insulin resistance, and lipid abnormalities, all of which are very significant metabolic syndromes similar to a human body. The effects of the compounds of the present application on body weight, food intake, blood sugar, and lipids in C57 BL/6J DIO mice were studied.
Obesity was induced in mice by feeding with a high-fat diet (60 kcal % of calories from fat). […] After grouping, one animal was raised in each cage for one week, during which each of the animals was injected subcutaneously (S.C.) with a solvent (1×PBS, 5 ml/kg) to pre-adapt the experimental operation process.
After the preparation of animals, vehicle control or compounds were administered to groups of animals by subcutaneous injection, in which the compounds were dissolved in 1×PBS, the dosage was 5 ml/kg, and the administration operation was started at 9:00 am and conducted once every three days (Q3D) for 15 days. Throughout the entire experimental study, animal weight and food intake were measured daily before administration, and compared with initial weight and food intake of the same animal before administration to calculate a percentage change in animal weight (%) and cumulative food intake, so as to evaluate the impact of compounds on changes in body weight and food intake.
At the end point of the experiment (Day 15), the body weight of the mice was measured, and then fasting blood glucose was measured by taking blood from the tail tip of broken tail without anesthesia. After the blood collection, the animals were anesthetized with CO2 and euthanized. Then, blood was taken from the heart and plasma was separated by centrifugation. The plasma was used to measure total cholesterol (TC), low-density lipoprotein cholesterol (LDL-C), triglycerides (TG), and blood insulin content. The liver was separated for homogenization, and then centrifuged to obtain the supernatant for determining triglyceride content in the liver.
All results were expressed in Mean±SEM, and the results were analyzed by one-way ANOVA using GraphPad Prism 5 software, followed by Dunnett's post hoc test compared to the Vehicle control group. The difference at the p<0.05 level was considered statistically significant.

[2] = Rat pharmacokinetics (PK) study; format: in vivo; conditions: sc, male SD rats, subcutaneous 30 nmol/kg, plasma
Description: 7˜9 weeks old male SD rats (220-250 g, 3 rats/group) were subjected to subcutaneous injection of 30 nmol/kg compound. After administration, blood was collected through the jugular vein at time points 0.25, 2, 4, 8, 12, 16, 24, 48, 96, 120, and 144 hours. The blood was processed to obtain plasma samples and analyzed using LC-MS/MS. The blood concentration time curve was analyzed using Phoenix WinNonlin version 6.3 software (non compartment model), and PK parameters and half-life were calculated.

Human GLP-1R = Human GLP-1R (Homo sapiens, UniProt P43220); test: cAMP (HTRF) activity in HEK-293 cells stably overexpressing human GLP-1 receptor; format: cell-based; set-up: expressed in transfected cells; host or cells: HEK-293
In short: as §1

## CC[C@H](C)[C@H](NC(=O)[C@H](Cc1ccccc1)NC(=O)[C@H](C)NC(=O)C(C)(C)NC(=O)[C@H](CCC(N)=O)NC(=O)[C@H](C)NC(=O)[C@H](CCCCNC(=O)COCCOCCNC(=O)COCCOCCNC(=O)CC[C@H](NC(=O)CCCCCCCCCCCCCCCCCCC(=O)O)C(=O)O)NC(=O)[C@H](CCCCN)NC(=O)[C@H](CC(=O)O)NC(=O)[C@H](CC(C)C)NC(=O)[C@H](Cc1ccccc1)NC(=O)[C@@H](NC(=O)[C@H](CO)NC(=O)[C@H](Cc1ccc(O)cc1)NC(=O)[C@H](CC(=O)O)NC(=O)[C@H](CO)NC(=O)[C@@H](NC(=O)[C@](C)(Cc1ccccc1F)NC(=O)[C@@H](NC(=O)CNC(=O)[C@H](CCC(N)=O)NC(=O)C(C)(C)NC(=O)[C@@H](N)Cc1ccc(O)cc1)[C@@H](C)O)[C@@H](C)O)[C@@H](C)CC)C(=O)N[C@@H](CCC(=O)O)C(=O)N[C@@H](Cc1ccc(O)cc1)C(=O)N[C@@H](CC(C)C)C(=O)N[C@@H](CC(C)C)C(=O)N[C@@H](CCC(=O)O)C(=O)N[C@H](C(=O)NCC(=O)N1CCC[C@H]1C(=O)N[C@@H](CO)C(=O)N[C@@H](CO)C(=O)NCC(=O)N[C@@H](C)C(=O)N1CCC[C@H]1C(=O)N1CCC[C@H]1C(=O)N1CCC[C@H]1C(=O)N[C@@H](CO)C(N)=O)[C@@H](C)O [Compound 17]
Human GCG R
  Human GCG R Rel. A (Relative Activity): 162.86%
3T3-L1 adipocytes; read-out: EC50 on mouse 3T3-L1 adipocyte, cAMP, at least 3 independent tests
  EC50: 9.73 nM
3T3-L1 adipocytes; relative to GIP
  Rel. A (Relative Activity) on 3T3-L1 adipocyte: 39.08%
[1]; cAMP, at least 3 independent tests, read-out: EC50 on human primary liver cells
  EC50: 1.68 nM
[1]; relative to GCG
  Rel. A (Relative Activity) on human primary liver cells: 231.75%
C57 BL/6J DIO mice; 3 nmol/kg s.c. Q3D for 15 days
  Weight change: −13.6 ± 0.90%
C57 BL/6J DIO mice; 10 nmol/kg s.c. Q3D for 15 days
  Weight change: −22.7 ± 1.87%
C57 BL/6J DIO mice; 3 nmol/kg, Day 15
  LDL-C: 0.43 ± 0.033 mM
  TC (total cholesterol): 3.85 ± 0.174 mM
  TG (plasma triglycerides): 0.82 ± 0.015 mM
C57 BL/6J DIO mice; 10 nmol/kg, Day 15
  LDL-C: 0.38 ± 0.024 mM
  TC (total cholesterol): 3.19 ± 0.216 mM
  TG (plasma triglycerides): 0.64 ± 0.040 mM
C57 BL/6J DIO mice; Table 8-2, 3 nmol/kg, Day 15
  Blood sugar (fasting blood glucose): 141.1 ± 2.45 mg/dL
  Insulin (blood): 37.5 ± 18.49 mIU/L
[2]
  AUC(0-t): 5.81 µM·h
  Cmax: 136 nM
  Tmax: 17.3 h
  half-life: 17.3 h
Human GLP-1R
  EC50: 0.011 nM
Human GLP-1R; EC50 of human GLP-1 (7-37) / EC50 of compound
  Human GLP-1R Rel. A (Relative Activity): 400.00%
